# Antibody variant affinities, Ab-95 light chain, assay 2

Target: peptide PDVDLGDISGINAS, taken from heptad repeat 2 (HR2) of SARS-CoV-2 spike.

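The starting antibody came from a phage panning campaign against this peptide. Variants in AAYL52 differ from the parent at up to three CDR positions; double and triple changes were sampled at random. The scFvs were displayed on barcoded MATa yeast, the peptide on MATalpha yeast. Binding brings cells together so that they mate, and sequencing counts the barcode pairs among the diploids. Read counts were normalised to the haploid input and turned into Kd by a linear fit to BCL2-family pairs of known affinity, for each replicate. Mating was done three times.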

Ab-95 is the parent antibody, in scFv form: VH, then a 15-residue (Gly4Ser)3 linker, then VL. The heavy chain is unchanged in all variants.
VH: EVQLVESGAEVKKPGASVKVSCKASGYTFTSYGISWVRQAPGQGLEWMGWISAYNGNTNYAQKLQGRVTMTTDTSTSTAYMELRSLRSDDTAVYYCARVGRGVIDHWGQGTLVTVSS
VL: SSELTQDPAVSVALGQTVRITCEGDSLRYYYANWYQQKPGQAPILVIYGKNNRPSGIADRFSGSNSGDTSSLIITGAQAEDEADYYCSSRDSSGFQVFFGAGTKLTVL

Each variant is given by its three light chain CDRs, as the data file delimits them; those of the parent are EGDSLRYYYAN, GKNNRPS, SSRDSSGFQVF. The read-out is the apparent dissociation constant on a log10 scale (nM): the lower, the stronger. A mean of the replicates is given; it leaves out those without a signal. An entry "n.d." has no value in the source: the pair was not observed among the diploids in that replicate. This suggests poor binding but is not conclusive. In this assay the parent's reference entry averaged 2.31; its copy inside this library read 2.25.

CDR-L1,CDR-L2,CDR-L3,"log10 Kd, replicates","mean, log10 nM",signal with controls
EGDSLWYYYAN,GLNNRPS,SSRDSSGFQVF,2.63 n.d. 3.65,3.14,5/9 (3.88)
EGDSLGYYYAN,GANNTPS,SSRDSSGFQVF,2.60 2.42 1.83,2.29,3/9 (4.03)
EGDSLRGYYAN,GKNNRPS,SSRDSSGFQRF,2.24 1.61 1.68,1.84,4/9 (3.11)
EGDALRYYHAN,GKNNRPV,SSRDSSGFQVF,2.22 2.00 1.72,1.98,3/9 (4.71)
EGDSLRYYYAR,GKNQRPS,SSRDSSGFQEF,5.59 4.80 n.d.,5.19,4/9 (3.85)
EGDSLRYYYFN,YKNNRPS,SSRDSPGFQVF,4.55 4.52 n.d.,4.54,3/9 (3.78)
EGDSLRYYYAN,GQDNRPS,SSRDSSGFWVF,2.05 2.36 2.77,2.40,2/9 (3.72)
EGDSLRYYYAN,GKNNRPS,SRRLSSGFQVS,3.78 n.d. n.d.,3.78,3/9 (3.58)
EGDSLRYYYAN,HKNNRPS,SSLDYSGFQVF,n.d. n.d. 3.13,3.13,1/9 (3.26)
EGDMLRYYYAN,GKNNRRS,SKRDSSGFQVF,n.d. n.d. n.d.,n.d.,1/9 (4.03)
EGQSLRYYYAN,GKNNMPS,SSQDSSGFQVF,n.d. n.d. n.d.,n.d.,2/9 (3.61)
EGDSLQYYYAN,GKNNEPS,SSRDSSGFQVF,3.34 3.95 3.99,3.76,3/9 (4.30)
EGCSLRYYEAN,GKNNRPS,ASRDSSGFQVF,2.58 2.80 2.54,2.64,4/9 (3.88)
EWDSLRYYYAN,GKNNRPS,SGSDSSGFQVF,4.34 3.65 4.21,4.07,3/9 (4.69)
EGDSLRFYYAN,GKNGRPS,SSRDSSGMQVF,3.16 3.40 2.70,3.09,1/9 (4.10)
EGDSLRYYYAN,GKNLRPS,SSADSSGTQVF,2.97 2.34 2.68,2.66,0/9
EGDSLCYYYAN,GKNNKNS,SSRDSSGFQVF,3.22 5.10 3.09,3.80,4/9 (3.67)
EGDSWRYYYAN,CVNNRPS,SSRDSSGFQVF,5.21 3.80 3.10,4.04,5/9 (3.43)
ESDVLRYYYAN,GKTNRPS,SSRDSSGFQVF,n.d. n.d. n.d.,n.d.,2/9 (3.42)
EGDSLRYYYAN,GKKNRPS,SSRDSSAFQVF,3.59 3.71 2.87,3.39,5/9 (3.63)
EGDALRYYYAD,GKNNRPS,SSRDSSGGQVF,n.d. 3.32 n.d.,3.32,4/9 (3.99)
EGDSLGYYYAN,GKNNRPS,SSYDQSGFQVF,n.d. n.d. n.d.,n.d.,1/9 (4.16)
EGDSLDYYYAN,GKNNRPS,SSRDSSGFQVF,2.36 2.39 2.40,2.38,5/9 (3.70)
EGDSLRYYYAN,GKNNRPS,SSRDSSGCMVG,3.08 2.75 2.54,2.79,3/9 (3.40)
EGDSLCYYYAN,GKNNCPS,SSRDSSNFQVF,n.d. 3.68 3.84,3.76,5/9 (4.06)
FADSLRYYYAN,GKNNRPS,SSRDSSGFQVF,4.25 3.42 3.69,3.78,4/9 (4.08)
EGDSLRYYYPP,NKNNRPS,SSRDSSGFQVF,5.36 n.d. 4.25,4.81,5/9 (4.07)
EGDSLRYNYAN,GKNLRPS,SSRDSCGFQVF,2.86 2.56 2.49,2.64,4/9 (3.90)
EGDSLMYYYAN,GKANRPS,SSRYSSGFQVF,4.61 n.d. n.d.,4.61,2/9 (4.73)
EGDSLRYYYAN,GKKNRPS,SSRDSSGFQVF,3.15 3.60 n.d.,3.37,1/9 (3.72)
EIDSLRYYMAN,GKNNRPS,SSRDSSGLQVF,n.d. 3.90 n.d.,3.90,1/9 (5.41)
EGDSLRYYYAN,GKVNRPS,SSRDSSVFQVF,n.d. 4.71 3.49,4.10,3/9 (3.58)
EGDSLRYYYTN,GKNNKPS,SSQDSSGFQVF,n.d. 3.62 n.d.,3.62,2/9 (4.38)
EGDSLRYYYAN,GKNNRPS,SSPDSSAFQVT,n.d. n.d. n.d.,n.d.,0/9
EGDSLRYHYAN,GANNRPS,SSRDYSGFQVF,1.28 1.12 0.72,1.04,6/9 (4.15)
EGDSLRGYYAN,GKNNRVS,SSEDSSGFQVF,n.d. 2.69 2.89,2.79,4/9 (3.86)
EGDSLRYYYAN,GKNNRPS,SSRDPSGFQVF,2.54 2.44 2.37,2.45,4/9 (3.48)
EGDSLRYYYAN,GKLNRPS,SSCDSSPFQVF,3.00 n.d. 4.40,3.70,4/9 (4.70)
EGDSLRYVYAN,GKNNRPS,SSRDSSWWQVF,2.22 2.05 1.62,1.97,7/9 (4.25)
EGLSLRYKYAN,GKNNRPS,SGRDSSGFQVF,3.13 1.99 3.09,2.74,2/9 (4.05)
WGDSLRYYYVN,GKNNRPS,SSRASSGFQVF,3.29 3.23 4.13,3.55,4/9 (3.96)
EGDSTRYYYAN,PKNNIPS,SSRDSSGFQVF,n.d. n.d. 3.06,3.06,2/9 (4.29)
EGDSLPYYYAN,GKNNRPS,SSTDSSGFQVL,n.d. n.d. n.d.,n.d.,0/9
EGDSLRYYYAI,GKNNRQS,SSRDNSGFQVF,4.96 n.d. 2.62,3.79,0/9
EGDELRYYYIN,GKWNRPS,SSRDSSGFQVF,n.d. 3.79 3.91,3.85,2/9 (4.49)
AGYSLRYYKAN,GKNNRPS,SSRDSSGFQVF,2.43 2.73 2.93,2.70,6/9 (4.16)
EGASLRYYYAN,GKNDRPS,SSRDSSTFQVF,2.07 4.55 3.00,3.21,1/9 (3.74)

Repeated from above, the 7 best binders with a signal in all replicates:

CDR-L1,CDR-L2,CDR-L3,"log10 Kd, replicates","mean, log10 nM",signal with controls
EGDSLRYHYAN,GANNRPS,SSRDYSGFQVF,1.28 1.12 0.72,1.04,6/9 (4.15)
EGDSLRGYYAN,GKNNRPS,SSRDSSGFQRF,2.24 1.61 1.68,1.84,4/9 (3.11)
EGDSLRYVYAN,GKNNRPS,SSRDSSWWQVF,2.22 2.05 1.62,1.97,7/9 (4.25)
EGDALRYYHAN,GKNNRPV,SSRDSSGFQVF,2.22 2.00 1.72,1.98,3/9 (4.71)
EGDSLGYYYAN,GANNTPS,SSRDSSGFQVF,2.60 2.42 1.83,2.29,3/9 (4.03)
EGDSLDYYYAN,GKNNRPS,SSRDSSGFQVF,2.36 2.39 2.40,2.38,5/9 (3.70)
EGDSLRYYYAN,GQDNRPS,SSRDSSGFWVF,2.05 2.36 2.77,2.40,2/9 (3.72)

Nonspecific signal, from three strains lacking the peptide, appeared in 28% of pairings of library AAYL52, centred on 3.91 (5% of these signals below 2.90); values are not corrected for it. For each scFv, signals with the empty controls are counted beside the result, with their mean in brackets.

Data: MIT Lincoln Laboratory AlphaSeq set, Engelhart et al. 2022, doi:10.1038/s41597-022-01779-4, as distributed in FLAb.